TrxR1 substrate – substrates of rat thioredoxin reductase 1; O89049; purified TrxR1 substrate turnover, NADPH consumption readout; Potency, µM (series often up to 114 µM); 390,000 compounds, 0.01% hits; also: nearly all actives have a fitted effect of over 50% in size
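Rat TrxR1, dispensed at 90 nM, was prereduced with 400 uM NADPH (final) for 5 min at ~22 deg C, then incubated with compound 15 min before 400 uM selenite. A first-read NADPH fluorescence drop versus no-compound background flagged substrates.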
ClpP mod – qHTS Assay for Activators of ClpP. ATP-dependent Clp protease proteolytic subunit (Bacillus subtilis (strain 168)), P80244. purified B. subtilis ClpP, FRET peptide cleavage, 20 min. Potency, µM (titrated, usually from 57.5 µM). 340,000 compounds, 1.9% hits. AID 651965, 2013; active = well fitted falling curve with a large enough effect; inconclusive = small, poorly fitted or top-dose-only effect; inactive = no such curve, though single readings can be large or run the other way; also: the source files actives as falling curves though it sought activators and does not explain the sign; nearly all actives have a fitted effect of over 65% in size
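Buffer: 100 mM Tris/HCl pH8, 100 mM KCl, 0.05% low protease BSA, 2.5% glycerol, 0.01% Tween-20. ClpP 10 microg/mL final; 20 min RT; delta FRET normalized to ADEP and DMSO controls.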
rTrxR1 inhibitor – inhibitors of rat thioredoxin reductase 1. 390,000 compounds, 1% hits. AID 588453. Potency, µM (highest dose often 114 µM), actives largely listed as inhibitors. recombinant rTrxR1, NADPH fluorescence consumption, selenite substrate; also: nearly all actives have a fitted effect of over 65% in size
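Rat TrxR1 (90 nM in the dispensed reagent) was pre-reduced with 400 uM NADPH for 5 min at room temperature, then incubated with compound for 15 min. After 400 uM selenite was added, NADPH fluorescence (Ex 340/Em 450 nm) was followed for 8 min.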
miR-21 reporter – miR-21 reporter, rising signal; HeLa miR-21 FLuc reporter, luciferase, 48 h; Potency, µM (highest dose often 38.3 µM); 340,000 tested, under 10 active; AID 2288; active = well fitted rising curve with a large enough effect; inconclusive = small, poorly fitted or top-dose-only effect; inactive = no such curve, though single readings can be large or run the other way;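 further: miR-21 action dims this reporter so a rising signal means less miR-21 action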
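HeLa cells stably expressing CMV-driven firefly luciferase with a downstream miR-21 binding sequence, endogenously expressing miR-21, were treated with titrations (up to about 40uM final) for 48 hours at 37 degree Celsius. Luciferase luminescence was read after lysis.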
Apoferritin bind – binds horse apoferritin like a general anesthetic; P02791; apoferritin/1-aminoanthracene competitive binding, fluorescence; Potency, µM (top dose mostly 77.5 µM), hits mostly inhibitors; 350,000 compounds, 0.074% hits; AID 485281; also: nearly all actives have a fitted effect of over 20% in size
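10 uM apoferritin + 50% sat. 1-AMA, PBS; cpd 10 min RT; Ex380/Em535 endpoint; normalized to free probe vs complex; 4-param Hill fit; propofol titration as pos. ctrl.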
Numbers stand for hits; [ ] = remark or other dose. Hits are enriched below; roughly 2.5% of the tested compounds scored in any of these assays. Unless noted, calls follow the shape of the dose curve; as a rule, active = well fitted curve in the direction sought with a large enough effect; inconclusive = small, poorly fitted or top-dose-only effect, or another doubt; inactive = no such curve, though single readings can be large; an effect the other way counts as inactive or inconclusive.

Screening CC(C)=C(NC(=O)c1ccccc1)C(=O)N1CCOCC1 returned TrxR1 substrate inactive, ClpP mod inactive, rTrxR1 inhibitor inactive, miR-21 reporter inactive and Apoferritin bind inactive.
CC(C)OC(=O)CC(=O)c1sc2nc3c(cc2c1N)CN(C)CC3 was read as TrxR1 substrate inactive, ClpP mod inactive, rTrxR1 inhibitor 20µM, miR-21 reporter inactive and Apoferritin bind inactive.
CN1C/C(=C/c2ccc(B(O)O)cc2)C(=O)/C(=C/c2ccc(B(O)O)cc2)C1 was read as Apoferritin bind inactive.
Screening Cc1ccc2nc(SCC(=O)NCCc3ccccc3)nc(=O)n2c1 returned TrxR1 substrate inactive, ClpP mod 28.2µM and rTrxR1 inhibitor inactive.
For Cc1ccc2nc(SCC(=O)OCc3ccccc3)nc(=O)n2c1 the results were TrxR1 substrate inactive, ClpP mod 28.2µM and rTrxR1 inhibitor inactive.
Screening CCOC(=O)CSc1nc(=O)n2cc(C)ccc2n1 returned TrxR1 substrate inactive, rTrxR1 inhibitor inactive, miR-21 reporter inactive and Apoferritin bind inactive.
For Cn1c(N)c(C#N)c2c(c1=S)CSC(C)(C)C2 the results were TrxR1 substrate inactive, ClpP mod inactive, rTrxR1 inhibitor inconclusive, miR-21 reporter inactive and Apoferritin bind inactive.
`CC1(C)Cc2c(C#N)c(N)sc(=S)c2CS1` gave TrxR1 substrate inactive, ClpP mod inactive, rTrxR1 inhibitor 14.1µM, miR-21 reporter inactive and Apoferritin bind inconclusive.
`CC(=O)N1CCC2(CC1)CC(=O)c1cc(OCC(=O)NCc3ccc(C)cc3)ccc1O2` gave TrxR1 substrate inactive, ClpP mod 28.2µM, rTrxR1 inhibitor inactive, miR-21 reporter inactive and Apoferritin bind inactive.
For CC(=O)N1CCC2(CC1)CC(=O)c1cc(OCC(=O)NCc3ccco3)ccc1O2 the results were TrxR1 substrate inactive, ClpP mod 11.2µM, rTrxR1 inhibitor inactive, miR-21 reporter inactive and Apoferritin bind inactive.
For Cc1ccc(Cn2c(CCCNC(=O)c3ccco3)nc3ccccc32)cc1 the results were TrxR1 substrate inactive, ClpP mod inactive, rTrxR1 inhibitor inactive, miR-21 reporter inactive and Apoferritin bind inactive.
O=C1CS(=O)(=O)N(Cc2cccc(F)c2)c2ccc(Br)cc21 was read as TrxR1 substrate inactive, ClpP mod inactive and rTrxR1 inhibitor 79.4µM.
Cc1nn2c(C)c(C(=O)NCC(C)c3ccccc3)cnc2c1-c1ccccc1 (configuration not stated) was read as TrxR1 substrate inactive, ClpP mod inactive, rTrxR1 inhibitor inactive, miR-21 reporter inactive and Apoferritin bind inactive.
`O=C(Nc1cccc(F)c1)C1CCN(C(=O)c2ccc(Cl)cc2)CC1` gave TrxR1 substrate inactive, ClpP mod 25.1µM, rTrxR1 inhibitor inactive, miR-21 reporter inactive and Apoferritin bind inactive.
CN(CC(=O)Nc1cccc(F)c1)C(=O)C1CCN(C(=O)c2ccc(Cl)cc2)CC1 was read as TrxR1 substrate inactive, ClpP mod inactive and rTrxR1 inhibitor inactive.
`COc1cc2ncc3c(-c4ccccc4)nn(CC(=O)NC4CCCCC4)c3c2cc1OC` gave TrxR1 substrate inactive, ClpP mod inconclusive, rTrxR1 inhibitor inactive, miR-21 reporter inactive and Apoferritin bind inactive.
CC(c1ccccc1)C1CC(=O)N(Cc2ccco2)C1=O (configuration not stated) was read as TrxR1 substrate inactive, ClpP mod inactive, rTrxR1 inhibitor 39.8µM, miR-21 reporter inactive and Apoferritin bind inactive.
CCOc1ccc(NC(=O)C(C)n2c(=O)cc(C)c3c(C)nn(-c4ccccc4)c32)cc1 (configuration not stated) was read as TrxR1 substrate inactive, ClpP mod inactive, rTrxR1 inhibitor inactive, miR-21 reporter inactive and Apoferritin bind inactive.
Cc1c(C(=O)OC(C)C(C)C[N+](C)(C)C)oc2ccccc12 (configuration not stated) was read as TrxR1 substrate inactive, ClpP mod 28.2µM, rTrxR1 inhibitor inactive, miR-21 reporter inactive and Apoferritin bind inactive.
For Cc1c(C(=O)OC(C)C(=O)N(C)Cc2ccccc2)oc2ccccc12 (configuration not stated) the results were TrxR1 substrate inactive, ClpP mod inactive and rTrxR1 inhibitor inactive.
Screening CCOc1ccc(Nc2oc(/C=C/c3cc(OC)c(OC)c(OC)c3)nc2C#N)cc1 returned TrxR1 substrate inactive, ClpP mod inactive, rTrxR1 inhibitor inactive, miR-21 reporter inactive and Apoferritin bind inactive.
`NS(=O)(=O)c1cc2c(cc1Cl)N[C@@H](CC1CCCC1)NS2(=O)=O` gave Apoferritin bind inactive.
Screening CN1C(CCl)Nc2cc(Cl)c(S(N)(=O)=O)cc2S1(=O)=O (configuration not stated) returned TrxR1 substrate inactive, ClpP mod 14.1µM and rTrxR1 inhibitor inactive.
`CC(NC(=O)/C(C#N)=C/c1ccc(Cl)c([N+](=O)[O-])c1)c1ccccc1` (configuration not stated) gave TrxR1 substrate inactive, ClpP mod inactive, rTrxR1 inhibitor 39.8µM, miR-21 reporter inconclusive and Apoferritin bind inconclusive.
`Cc1ccc(S(=O)(=O)N2CCN(c3nc(-n4c(=O)[nH]c5ccccc54)nc4ccccc34)CC2)cc1` gave TrxR1 substrate inactive, ClpP mod inactive and rTrxR1 inhibitor inactive.
For Cc1cccc(CNC(=O)c2sc3ncnc(N(C)C4CCCCC4)c3c2C)c1 the results were TrxR1 substrate inactive, ClpP mod inconclusive, rTrxR1 inhibitor inactive, miR-21 reporter inactive and Apoferritin bind inactive.
`Cc1ccc2c(c1)c1ccc3c(c1n2C)C(=O)C=CC3=O` gave TrxR1 substrate inactive, ClpP mod inactive, rTrxR1 inhibitor 39.8µM, miR-21 reporter inactive and Apoferritin bind inactive.
Cn1c2ccccc2c2ccc3c(c21)C(=O)C=CC3=O was read as TrxR1 substrate inactive[11.4 µM], ClpP mod inactive and rTrxR1 inhibitor inactive.
`COc1ccc(NC(=O)Cn2c(=O)n(Cc3ccccc3)c(=O)c3oc4ccccc4c32)cc1Cl` gave TrxR1 substrate inactive, ClpP mod inactive, rTrxR1 inhibitor inactive, miR-21 reporter inactive and Apoferritin bind inactive.
Brc1ccc(-c2cnc(-c3cccs3)o2)cc1 was read as TrxR1 substrate inactive, ClpP mod 31.6µM, rTrxR1 inhibitor inactive, miR-21 reporter inactive and Apoferritin bind inactive.
CCC(Sc1ncccc1C(=O)Oc1cccc([N+](=O)[O-])c1)C(=O)Nc1ccccc1OC (configuration not stated) was read as TrxR1 substrate inactive, ClpP mod 35.5µM, rTrxR1 inhibitor inactive, miR-21 reporter inactive and Apoferritin bind inactive.
`COc1cccc2sc(N(Cc3cccnc3)C(=O)C3CCCCC3)nc12` gave TrxR1 substrate inactive, ClpP mod inactive, rTrxR1 inhibitor inactive, miR-21 reporter inconclusive and Apoferritin bind inactive.
Screening NS(=O)(=O)Nc1c(Br)cc(Br)c2cccnc12 returned TrxR1 substrate inactive[0.457 µM] and rTrxR1 inhibitor 28.2µM.
Nc1c(Br)cc(Br)c2cccnc12 was read as TrxR1 substrate inactive and rTrxR1 inhibitor inconclusive.

Bioassay records from PubChem BioAssay.
